Laboratory results taken from PMC12114195, “Synthesis, Experimental and Computational Evaluation of SERAAK1 as a 5-HT2A Receptor Ligand” (Molecules, 2025).

Assay: PAMPA passive permeability
Type: in vitro ADME
Details: PBS pH 7.4, 5 h, read-out: Pe ± SD
Procedure: The PAMPA assay was utilized to evaluate the ability of SERAAK1 to passively diffuse through a lipid-infused artificial membrane. The results, gathered in Table 3, were expressed as permeability coefficient Pe, calculated according to the formulas described elsewhere.
The pre-coated PAMPA Plate System Gentest from Corning (Tewksbury, MA, USA) was used in experiments using the instructions of the manufacturer. SERAAK1 and reference compounds were diluted in the PBS buffer (pH 7.4) to the final concentration of 100 μM and placed on the 96-well donor microplate. The exact quantity of molecules that successfully penetrated from donor to acceptor wells through the phospholipid membrane was estimated after 5 h of incubation using UPLC-MS spectrometry (Waters ACQUITY™ TQD system with the TQ Detector, Waters, Milford, CT, USA). The final permeability coefficient (Pe, cm/s) calculation was performed using the formula provided by the vendor of the PAMPA Plate System.

`Cn1c(=O)c2c(ncn2C)n(C)c1=O` [Caffeine, reference compound] gave a Papp at 5 h, 100 μM of 12.4 ± 0.6 ×10⁻⁶ cm/s.
